Experimental findings from article PMC4366370, “Overexpression of a Novel Thermostable and Chloride-Tolerant Laccase from Thermus thermophilus SG0.5JP17-16 in Pichia pastoris and Its Application in Synthetic Dye Decolorization” (PLoS ONE, 2015) are described below.

The term Km denotes the substrate concentration at which the rate is half of its maximum. As a reminder, the kcat is the maximal rate divided by the concentration of active sites. By kcat/Km is commonly meant the second-order rate constant that governs catalysis at low substrate concentration.

In the data set the test system is CCn1c(=NN=c2sc3cc(S(=O)(=O)O)ccc3n2CC)sc2cc(S(=O)(=O)O)ccc21. Briefly: purified protein. Conditions: optimal pH 4.5, 90°C.

Take “LacTT (Thermus thermophilus SG0.5JP17-16)”: the Km came to 36.0 ± 3.4 µM, the turnover number (kcat) came to 0.365 s⁻¹ and the catalytic efficiency (kcat/Km) was 11000 M⁻¹ s⁻¹.
